Assay results reported in PubChem BioAssay (NCI).
The list shows a part of the results, in another mix than the full data.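 Plates (96-well) were seeded with cells, treated with compound at one concentration, and incubated for 48 hours before percent growth was determined.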 Calls of active or inactive are those of the source. The calls were made as follows: active = growth percent below 10; inactive = the rest.

Columns and labels:
Assay in all cases: NCI-60 one-dose screen, 48 h (100 = growth as untreated, 0 = no growth, -100 = all killed)
Conditions in all cases: 10 µM unless noted
[1] = system: NCI-H23 lung
[2] = system: NCI-H226 lung
[3] = system: HOP-62 NSCLC
[4] = system: HOP-92 NSCLC
[5] = system: NCI-H522 lung
[6] = system: A549/ATCC NSCLC
[7] = system: 786-0 renal
[8] = system: COLO 205 colon
[9] = system: DU-145 prostate
[10] = system: K-562 leukemia
[11] = system: MALME-3M melanoma
[12] = system: MDA-MB-231 breast
[13] = system: RXF 393 renal
[14] = system: SF-268 CNS
[15] = system: SF-295 CNS
[16] = system: SF-539 CNS
[17] = system: UACC-257 melanoma
[18] = system: M14 melanoma
[19] = system: NCI-H460 lung
[20] = system: NCI-H322M lung

Measured: growth

c1cc(-c2nn[nH]n2)ccc1-c1nn[nH]n1
inactive: [1] 104% | [2] 96.8% | [3] 100% | [4] 87.7% | [5] 97.5% | [6] 96.9% | [7] 104% | [8] 99.3% | [9] 115% | [10] 115% | [11] 92% | [12] 102% | [13] 104% | [14] 103% | [15] 96.7% | [16] 109% | [17] 92.8% | [18] 103%

O=C(OC1CN2CCC1CC2)c1ccccc1 (centres undefined)
inactive: [1] 105% | [2] 101% | [19] 105% | [4] 96.5% | [6] 106% | [7] 114% | [8] 109% | [9] 121% | [11] 120% | [12] 100% | [13] 110% | [14] 104% | [15] 89.8% | [16] 110% | [17] 113% | [18] 111%

O=[As](O)(O)c1ccc(I)cc1
inactive: [1] 112% | [2] 105% | [20] 102% | [3] 100% | [19] 115% | [6] 101% | [7] 105% | [8] 108% | [9] 103% | [10] 101% | [11] 112% | [12] 110% | [13] 103% | [14] 108% | [15] 105% | [16] 103% | [17] 99.3% | [18] 106%

O=[N+]([O-])c1cc(Oc2ccc([N+](=O)[O-])cc2C(F)(F)F)cc([N+](=O)[O-])c1
inactive: [1] 95% | [2] 106% | [20] 98.7% | [19] 97.1% | [4] 139% | [5] 83.2% | [6] 97.1% | [7] 107% | [8] 115% | [9] 98.6% | [10] 77.4% | [11] 63.7% | [12] 74.1% | [13] 111% | [14] 93.5% | [15] 96.6% | [16] 107% | [17] 98% | [18] 97.5%

ClCCNCc1cccc(Cl)c1
inactive: [1] 102% | [2] 93.1% | [20] 108% | [3] 96% | [4] 88.3% | [5] 114% | [6] 90.4% | [7] 97.3% | [8] 105% | [9] 111% | [10] 90% | [11] 102% | [13] 107% | [14] 115% | [15] 92.5% | [16] 109% | [17] 90.8% | [18] 96%

CCCCCCCNP(=S)(Cl)Cl
inactive: [1] 101% | [2] 96.8% | [20] 101% | [19] 108% | [4] 99.9% | [5] 27.7% | [6] 103% | [7] 101% | [8] 107% | [9] 108% | [10] 96.4% | [11] 92.5% | [12] 104% | [13] 115% | [14] 102% | [15] 99.5% | [16] 94.3% | [17] 112% | [18] 103%

O=[N+]([O-])C1C(O)C(O)C([N+](=O)[O-])C(O)C1O (centres undefined)
inactive: [1] 111% | [2] 99.5% | [20] 95.7% | [3] 88.7% | [19] 105% | [6] 102% | [7] 104% | [8] 99.2% | [9] 108% | [10] 110% | [11] 97.5% | [12] 92.1% | [13] 102% | [14] 112% | [15] 95.3% | [16] 106% | [18] 98%

Cc1ccc(S(=O)(=O)N(CCCN)CCCc2c(C)nc(N)[nH]c2=O)cc1
inactive: [1] 98.9% | [20] 92.7% | [3] 99.1% | [19] 104% | [4] 87.4% | [5] 95.7% | [6] 103% | [7] 99.4% | [8] 110% | [9] 109% | [10] 95.9% | [11] 113% | [12] 108% | [13] 101% | [14] 98.7% | [15] 100% | [16] 96% | [17] 101% | [18] 100%

Cc1ccc(Sc2ccc([N+](=O)[O-])cc2[N+](=O)[O-])c([N+](=O)[O-])c1
inactive: [20] 88.2% | [3] 28.4% | [19] 74.4% | [6] 15.7% | [11] 75.3% | [12] 31.9% | [13] 23.2% | [14] 32.6% | [16] 14.2%
active: [2] -20.3% | [4] -7.35% | [5] -31.2% | [7] 8.51% | [8] -5.45% | [9] -8.75% | [10] 7.74% | [15] 3.73% | [17] -25% | [18] 1.56%

CCN(CCI)Cc1cccc2ccccc12
inactive: [1] 97.1% | [2] 98.7% | [3] 97.1% | [19] 103% | [4] 94.9% | [5] 94.5% | [6] 101% | [7] 102% | [8] 102% | [9] 104% | [10] 104% | [11] 102% | [12] 102% | [13] 109% | [14] 101% | [15] 93.7% | [16] 103% | [17] 102% | [18] 101%

NNc1ccc([N+](=O)[O-])cc1[N+](=O)[O-]
inactive: [1] 108% | [2] 106% | [20] 100% | [3] 100% | [19] 107% | [6] 95.4% | [7] 97.3% | [8] 100% | [9] 103% | [10] 77.2% | [11] 99.8% | [12] 94.5% | [14] 93.3% | [15] 102% | [16] 102% | [17] 115% | [18] 105%
